Assay results: patent publication US11066408B2, “Crystalline binary sodium salts of 5-methyl-(6S)-tetrahydrofolic acid with organic bases” (MERCK PATENT GMBH, priority 2017, dated 2021)

Conditions: for time the solution remains clear: aqueous solution at r.t.; for kinetic solubility in water: purified/de-ionized water, room temperature, agitated (briefly sonicated), not assay corrected; for time until a clear solution is obtained: weighed solid plus water, agitated at room temperature
Method: The measurement of the kinetic solubility was conducted as described in the experimental part.
0.5 ml of purified/de-ionized water (for instance water for chromatography) is added.
2.535 ml of purified/de-ionized water (for instance water for chromatography) is added to the solid using an adjustable volumetric pipette. The mixture is vigorously agitated at room temperature and briefly sonicated.
Then 0.785 ml of purified/de-ionized water is added.
Then 1.0 ml of purified/de-ionized water is added.

Substance | time the solution remains clear | kinetic solubility in water | time until a clear solution is obtained
Crystalline Sodium Salt of 5-methyl-(6S)-tetrahydrofolic Acid Comprising 1-(2-hydroxyethyl)-pyrrolidine [Example 6] | several hours | greater than 100 mg per 1 ml of water | within a few seconds
Crystalline Sodium Salt of 5-methyl-(6S)-tetrahydrofolic Acid Comprising 2-dimethylaminoethanol [Example 8] | several hours | greater than 55 mg per 1 ml of water | within a few seconds
Crystalline Sodium Salt of 5-methyl-(6S)-tetrahydrofolic Acid and Comprising 4-(2-hydroxy-ethyl)-morpholine [Example 1] | several hours | greater than 54 mg per 1 ml of water | within a few seconds
